Values of other authors as cited in US8912167B2, “Heparin-based compositions and methods for the inhibition of metastasis” (priority 2011, dated 2014).

Details: clinical study for the reversal of heparin anticoagulation therapy, at the doses used

In the case of “tetra-[5-(L)-lysyl-amino-O-methylsalicylamide]”, the “effect on blood pressure” value is given as “undesirable decrease in blood pressure”.
